Patent publication US20120202876A1, “METHODS OF TREATING DISEASES WITH PROANTHOCYANIDIN OLIGOMERS SUCH AS CROFELEMER” (NAPO PHARMACEUTICALS, INC., priority 2009, published 2012)

Sequences of proteins named here, by UniProt entry; tags and fusion partners are left off.
UniProt P13569, whole entry: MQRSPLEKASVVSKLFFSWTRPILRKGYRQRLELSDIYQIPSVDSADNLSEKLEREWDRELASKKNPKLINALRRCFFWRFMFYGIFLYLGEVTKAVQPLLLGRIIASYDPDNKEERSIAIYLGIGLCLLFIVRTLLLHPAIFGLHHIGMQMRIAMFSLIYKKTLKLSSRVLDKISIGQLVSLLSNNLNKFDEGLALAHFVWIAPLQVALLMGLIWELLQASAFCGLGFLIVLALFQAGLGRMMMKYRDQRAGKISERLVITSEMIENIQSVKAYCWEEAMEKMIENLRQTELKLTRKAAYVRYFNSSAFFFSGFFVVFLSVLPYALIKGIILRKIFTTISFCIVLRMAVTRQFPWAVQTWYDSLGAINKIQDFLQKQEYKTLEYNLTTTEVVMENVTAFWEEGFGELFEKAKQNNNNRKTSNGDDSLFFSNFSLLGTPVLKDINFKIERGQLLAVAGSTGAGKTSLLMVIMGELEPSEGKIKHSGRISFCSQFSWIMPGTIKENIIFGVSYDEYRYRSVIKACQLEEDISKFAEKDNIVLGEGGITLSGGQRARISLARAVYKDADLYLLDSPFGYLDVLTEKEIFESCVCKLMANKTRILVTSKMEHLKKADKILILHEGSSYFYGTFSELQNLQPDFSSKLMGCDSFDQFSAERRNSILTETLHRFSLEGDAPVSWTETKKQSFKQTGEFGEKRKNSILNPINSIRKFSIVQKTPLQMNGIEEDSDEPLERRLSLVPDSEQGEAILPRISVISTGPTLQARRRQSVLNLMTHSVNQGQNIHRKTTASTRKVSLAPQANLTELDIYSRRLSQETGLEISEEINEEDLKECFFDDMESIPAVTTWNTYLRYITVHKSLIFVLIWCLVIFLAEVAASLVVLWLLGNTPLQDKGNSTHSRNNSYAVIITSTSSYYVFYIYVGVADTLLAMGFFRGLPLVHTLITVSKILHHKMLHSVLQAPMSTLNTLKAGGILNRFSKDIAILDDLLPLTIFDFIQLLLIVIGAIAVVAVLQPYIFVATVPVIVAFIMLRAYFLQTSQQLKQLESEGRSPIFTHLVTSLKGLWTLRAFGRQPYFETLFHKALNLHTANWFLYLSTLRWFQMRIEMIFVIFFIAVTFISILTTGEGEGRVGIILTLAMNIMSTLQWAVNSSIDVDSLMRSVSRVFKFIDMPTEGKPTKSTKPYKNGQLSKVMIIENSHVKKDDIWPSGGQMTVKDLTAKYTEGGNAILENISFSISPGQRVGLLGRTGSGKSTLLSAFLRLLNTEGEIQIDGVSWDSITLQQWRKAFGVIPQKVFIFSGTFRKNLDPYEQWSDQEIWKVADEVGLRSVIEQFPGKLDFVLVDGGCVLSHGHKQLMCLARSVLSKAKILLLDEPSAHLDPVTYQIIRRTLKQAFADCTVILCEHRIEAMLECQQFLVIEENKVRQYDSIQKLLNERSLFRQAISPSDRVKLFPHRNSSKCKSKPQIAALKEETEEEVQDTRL

Molecular target: T1, human CFTR (Homo sapiens, UniProt P13569)
T1 construct: expressed in transfected cells
Assay: Apical membrane Cl− current in CFTR-expressing FRT cells
Type: cell-based
Conditions: CFTR activated by CPT-cAMP; basolateral membrane permeabilized, Cl− gradient; inhibitor in apical solution; read-out: apparent IC50 for inhibition of CFTR Cl− current
Experimental: CFTR Cl^− current was measured in CFTR-expressing FRT cells in which the basolateral membrane was permeabilized by amphotericin B and a transepithelial Cl^− gradient was applied. Under these conditions, the measured current provides a direct quantitative measure of CFTR Cl^− conductance.
Measurements were done to investigate whether the Crofelemer inhibition potency depended on the CFTR activation mechanism. […] The reversibility of crofelemer inhibition of CFTR was investigated, since washout during secretory diarrhea is a concern in the use of a non-absorbable antisecretory agent. […] Following extensive washing, residual CFTR inhibition was determined from the current after re-stimulation by CPT-cAMP. […]
FRT cells (stably expressing CFTR or TMEM16A) were cultured on Snapwell filters until confluence (transepithelial resistance >500 ohm.cm). Short-circuit current was measured in Ussing chambers (Vertical diffusion chamber; Costar) with Ringer's solution bathing the basolateral surface and half-Ringer's bathing the apical surface. […] The basolateral membrane was permeabilized with 20 μM amphotericin B. Short-circuit current was measured using a DVC-1000 voltage-clamp apparatus (World Precision Instruments).

Substance: CFTRinh-172
- pIC50: ~6.00

pIC50: −log10 of the molar value.
